The structures appear in SMILES notation.

A word on the EC50: it is the concentration giving half of the maximal effect. A low value points to greater potency.

A short description of the assay: Vasorelaxant activity in pig pulmonary artery by organ bath experiment.
For `O=[N+]([O-])OCC(O)CO` (centres undefined), a half-maximal effect (EC50) was put at 56.3 µM. In turn, `O=[N+]([O-])OCC(CO)(CO)CO[N+](=O)[O-]` came in with an EC50 of 2.1 µM. `O=[N+]([O-])OCC(CO)(CO)CO`: the midpoint of the response, the EC50, lay at 72 µM. With `CC(=O)OCC(COC(C)=O)O[N+](=O)[O-]` the figure was 1.23 µM.

(Values after ChEMBL document CHEMBL1136895, “NO donors. Part 18: Bioactive metabolites of GTN and PETN--synthesis and vasorelaxant properties” (2009).)
